Columns and labels:
[1] = Stability analysis: mobility of initiator compound from cured print into analog solutions, by HPLC; format: physicochemical; conditions: 40° C. for 10 days, calculated for 1 kg of food per 600 cm^2 printing area
[2] = Solubility of solid photoinitiator in liquid polymerized monomer (HDDA or TPGDA); conditions: dissolved at 50-60° C., stored at room temperature

2-methyl-1-[4-methylthiophenyl]-2-morpholinyl-1-acetone
Mobility ([1]; 3% acetic acid): 4000 µg/kg | Mobility ([1]; Water): 1000 µg/kg | Solubility ([2]; Polymerized monomer 1: HDDA): 35 % (mass fraction) | Solubility ([2]; Polymerized monomer 2: TPGDA): 22 % (mass fraction)

From patent publication US11560362B2, “Dibutylfluorene derivative and application thereof as photoinitiator” (HUI ZHOU HUAHONG NEW MATERIAL CO., LTD., priority 2017, dated 2023)
